{"source": "patent US8975247B2", "about": "“Methods and compositions of treating a flaviviridae family viral infection” (priority 2009, dated 2015)", "test_system": "Huh7.5 cells", "type": "cell-based", "settings": "human, 3 days", "method": "Make a common stock from all tubes. […] 15) Incubate for 24 hr before treatment.\n3) Repeat daily for 2 more days.\nThe results are reported as % cell survival."}
{"compound": "COC(=O)c1ccc(Cn2cnc3ccccc32)cc1", "note": "[EBP062]", "values": [{"measurement": "2a Cell Viability @ 5 μM", "value": 89, "unit": "%"}]}
{"compound": "OCc1nc2ccccc2n1Cc1ccc(Br)cc1", "note": "[EBP059]", "values": [{"measurement": "2a Cell Viability @ 5 μM", "value": 86, "unit": "%"}]}
